The results in this text go back to patent US20240239761A1, “BICYCLIC PHENOL COMPOUNDS AND USE THEREOF” (MEDSHINE DISCOVERY INC., priority 2021, published 2024).

By UniProt entry, the sequences of proteins in these tests, tags left out. Chains listed by the source or under a name are the forms on record and can include a tag or linker. Residues count along the entry.
UniProt P10828, whole entry: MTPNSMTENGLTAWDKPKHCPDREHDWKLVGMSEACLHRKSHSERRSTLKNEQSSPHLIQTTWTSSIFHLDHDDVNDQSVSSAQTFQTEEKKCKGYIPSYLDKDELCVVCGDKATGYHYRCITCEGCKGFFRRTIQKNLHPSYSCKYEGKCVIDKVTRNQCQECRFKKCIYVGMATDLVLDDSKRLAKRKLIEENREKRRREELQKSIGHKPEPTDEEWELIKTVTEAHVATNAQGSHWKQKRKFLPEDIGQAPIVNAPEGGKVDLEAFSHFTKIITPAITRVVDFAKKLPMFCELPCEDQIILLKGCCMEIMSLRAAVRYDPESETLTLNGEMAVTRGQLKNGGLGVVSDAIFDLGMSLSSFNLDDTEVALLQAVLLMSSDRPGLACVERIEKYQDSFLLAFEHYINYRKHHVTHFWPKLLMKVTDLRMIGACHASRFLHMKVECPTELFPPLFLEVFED
UniProt P10827, 1-370 with tags or gaps limits assumed: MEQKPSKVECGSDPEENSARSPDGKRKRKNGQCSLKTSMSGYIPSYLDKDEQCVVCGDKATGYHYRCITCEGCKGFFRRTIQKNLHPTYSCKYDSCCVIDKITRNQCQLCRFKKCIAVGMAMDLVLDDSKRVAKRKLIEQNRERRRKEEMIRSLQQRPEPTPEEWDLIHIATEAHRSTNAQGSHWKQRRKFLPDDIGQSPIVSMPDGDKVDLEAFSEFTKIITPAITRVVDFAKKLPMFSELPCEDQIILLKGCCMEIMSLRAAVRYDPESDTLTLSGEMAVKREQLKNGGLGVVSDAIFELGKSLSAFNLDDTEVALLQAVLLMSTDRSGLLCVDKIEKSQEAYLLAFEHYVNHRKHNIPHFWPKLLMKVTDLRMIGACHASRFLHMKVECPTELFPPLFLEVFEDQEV

SMILES strings stand for the structures.

Assay [1] concerns the target THRβ (Homo sapiens, UniProt P10828). Nature of the assay: GeneBLAzer TR beta-UAS-bla HEK 293T cell-based agonist assay. Conditions: TR beta-UAS-bla HEK 293T cells; for THRß maximum agnostic capability: T3 as positive control; for EC50: read-out: THRß EC50, 16 hours incubation.
For assay [2], the target named is THRα (Homo sapiens (Human), UniProt P10827). Description: GeneBLAzer TR alpha-UAS-bla HEK 293T cell-based agonist assay. The note with it: TR alpha-UAS-bla HEK 293T cells; for THRα maximum agnostic capability: T3 as positive control; for EC50: read-out: THRα EC50, 22 hours incubation.

Turning to `Cc1cc(NC(=O)c2noc(=O)[nH]2)cc(C)c1Cc1ccc(O)c2c1CCCC2C` (single isomer, unassigned) [WX003], in assay [1], the “THRß maximum agnostic capability” value is reported as 93% and the concentration for a half-maximal effect (EC50) worked out at 27.6 nM. In assay [2], the “THRα maximum agnostic capability” value was 88% and the EC50 stood at 149 nM.
Take `Cc1cc(NC(=O)c2noc(=O)[nH]2)cc(C)c1Cc1ccc(O)c2c1CCCC2C` (single isomer, unassigned) [WX004]: in assay [1], the “THRß maximum agnostic capability” value is listed as 94% and the EC50 was found to be 9.07 nM. In assay [2], the “THRα maximum agnostic capability” value came to 96% and the EC50 came out at 76.2 nM.
The like results for `COC1CCCc2c(Cc3c(C)cc(NC(=O)c4noc(=O)[nH]4)cc3C)ccc(O)c21` (single isomer, unassigned) [WX008] were, in that order, 94%, 119 nM, 79% and 403 nM.
Turning to `COC1CCCc2c(Cc3c(C)cc(NC(=O)c4noc(=O)[nH]4)cc3C)ccc(O)c21` (single isomer, unassigned) [WX009], in assay [1], the “THRß maximum agnostic capability” value is 93% and the EC50 was found to be 154 nM. In assay [2], the “THRα maximum agnostic capability” value worked out at 83% and the EC50 worked out at 773 nM.
The like results for `CCOC1CCCc2c(Cc3c(C)cc(NC(=O)c4noc(=O)[nH]4)cc3C)ccc(O)c21` (single isomer, unassigned) [WX010] were, in that order, 94%, 9.95 nM, 90% and 93 nM.
The like results for `CCOC1CCCc2c(Cc3c(C)cc(NC(=O)c4noc(=O)[nH]4)cc3C)ccc(O)c21` (single isomer, unassigned) [WX011] were, in that order, 97%, 13 nM, 73% and 65.5 nM.
